According to publication PMC9254107, “The Toxoplasma glucan phosphatase TgLaforin utilizes a distinct functional mechanism that can be exploited by therapeutic inhibitors” (The Journal of Biological Chemistry, 2022):

How the values were obtained:
[1] = system: calf intestinal phosphatase (CIP); type: biochemical; details: pNPP assay
PTP1B = target: T1, PTP1B (Homo sapiens, UniProt P18031); assay: pNPP phosphatase assay; type: biochemical
T1 sequence (P18031 1-435): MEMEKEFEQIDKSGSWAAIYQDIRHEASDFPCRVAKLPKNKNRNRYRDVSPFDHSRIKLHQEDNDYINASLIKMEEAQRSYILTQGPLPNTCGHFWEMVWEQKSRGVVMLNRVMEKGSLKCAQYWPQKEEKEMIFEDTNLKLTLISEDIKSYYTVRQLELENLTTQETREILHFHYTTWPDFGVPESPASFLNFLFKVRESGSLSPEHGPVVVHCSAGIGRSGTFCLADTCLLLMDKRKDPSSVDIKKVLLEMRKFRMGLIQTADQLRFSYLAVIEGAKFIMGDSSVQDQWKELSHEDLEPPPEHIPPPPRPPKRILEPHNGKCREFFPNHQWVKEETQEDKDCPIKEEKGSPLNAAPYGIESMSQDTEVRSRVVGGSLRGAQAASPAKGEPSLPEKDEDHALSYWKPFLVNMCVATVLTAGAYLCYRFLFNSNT

selectivity toward TgLaforin compared to CIP [1]: at least 100 fold
selectivity toward TgLaforin compared to PTP1B (PTP1B): at least 100 fold
SMILES: O=C(Nc1ccc(Oc2ccccc2)cc1)C(=O)Nc1ccccc1NC(=O)C(c1ccccc1)S(=O)(=O)O (centres unmarked) [L319-21-M49, 2-oxo-2-((2-(2-oxo-2-((4-phenoxyphenyl)amino)acetamido)phenyl)amino)-1-phenylethanesulfonic acid]
